Source: patent US4237139A, “4-(3-(4-Quinolyl)propyl)piperidines, their preparation and their use as medicines” (Pharmindustrie, priority 1976, dated 1980)

System: ventricular arrhythmia caused by aconitine
Assay: Antiarythmic activity, aconitine test in rats
Conditions: LD 50/ED 50

SMILES: C=C[C@H]1CNCC[C@H]1CCCc1ccnc2ccc(OC)cc12 [Example 1, 4(R)-[3-(6-methoxy 4-quinolyl)propyl] 3(R)-vinyl piperidine]
- therapeutic index compared with quinidine and disopyramide, in words: therapeutic index higher than that of quinidine and disopyramide
